{"sequences": {"note": "Chains of the proteins cited; added tags and fusions are not shown.", "UniProt P35372, whole entry, looked up": "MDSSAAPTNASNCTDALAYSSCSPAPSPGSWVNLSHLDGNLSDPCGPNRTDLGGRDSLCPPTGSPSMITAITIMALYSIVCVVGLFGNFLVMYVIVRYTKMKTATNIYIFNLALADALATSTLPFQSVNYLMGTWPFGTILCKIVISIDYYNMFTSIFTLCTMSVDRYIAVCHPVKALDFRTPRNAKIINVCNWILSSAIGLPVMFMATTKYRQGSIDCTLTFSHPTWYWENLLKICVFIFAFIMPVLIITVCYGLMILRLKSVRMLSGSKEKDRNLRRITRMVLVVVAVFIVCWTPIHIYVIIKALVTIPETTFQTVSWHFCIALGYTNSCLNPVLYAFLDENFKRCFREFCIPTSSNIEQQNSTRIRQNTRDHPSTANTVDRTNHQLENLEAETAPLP", "UniProt P41143, whole entry, looked up": "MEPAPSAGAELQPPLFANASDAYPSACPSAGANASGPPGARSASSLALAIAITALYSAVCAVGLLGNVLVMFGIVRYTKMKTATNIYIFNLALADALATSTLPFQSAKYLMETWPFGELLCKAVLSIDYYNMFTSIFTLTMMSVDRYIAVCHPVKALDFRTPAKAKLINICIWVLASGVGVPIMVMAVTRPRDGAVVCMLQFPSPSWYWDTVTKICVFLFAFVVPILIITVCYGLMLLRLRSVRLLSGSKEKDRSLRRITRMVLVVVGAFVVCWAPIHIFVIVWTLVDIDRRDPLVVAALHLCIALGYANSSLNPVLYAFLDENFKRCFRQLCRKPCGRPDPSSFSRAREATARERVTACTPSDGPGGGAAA"}, "source": "PubChem BioAssay AID504357", "about": "(The Scripps Research Institute Molecular Screening Center, 2011)", "note": "The list shows a part of the results, in another mix than the full data. The source made the active and inactive calls. Cut-off read from the data, not from the text of the source: active = inhibition above about 22% (passing the limit was not always enough); inactive = the rest."}
{"target": "Mu-type opioid receptor (Homo sapiens) + Delta-type opioid receptor (Homo sapiens) (UniProt P35372+P41143)", "experiment": "inverse agonists of MOR-DOR heterodimerization, primary screen, cell-based, luminescence (AID 504357);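 note: 0% = cells with DMSO and 100% = wells without cells with DMSO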", "details": "cell-based MOR-DOR heterodimer luminescence, inverse agonism; at 9.3 µM; hits give high values"}
{"smiles": "COc1ccc(/C=N/NC(=O)Cn2cnc3c2c(=O)n(C)c(=O)n3C)cc1", "inhibition": "inactive: 17.2%"}
{"smiles": "COC(=O)C1=C(Cn2cnc3ccccc32)NC(=O)NC1c1cc(C)ccc1C", "note": "(configuration not stated)", "inhibition": "inactive: 1.94%"}
{"smiles": "c1ccc(CN2CCC(Nc3nc(-c4cccnc4)nc4ccccc34)CC2)cc1", "inhibition": "inactive: 7.45%"}
{"smiles": "CCc1cccc(CC)c1N(COC)C(=O)Cn1c(CO)nc2ccccc21", "inhibition": "inactive: 20.7%"}
{"smiles": "CCOC(=O)CC[C@H](NC(=O)Cn1cnc2c(SC)nc(N)nc21)C(=O)OCC", "inhibition": "inactive: 15.2%"}
{"smiles": "CSc1nc2ccccc2n1CC(=O)Nc1ccc(C)c(C)c1", "inhibition": "inactive: 3.6%"}
{"smiles": "C[C@H](NC(=O)N1CCn2c1nc1ccccc12)C(=O)N1CCCCC1", "inhibition": "inactive: 14.4%"}
{"smiles": "COc1ccc(Cl)cc1NC(=O)CN(C)C(=O)Cn1cnc2c1c(=O)n(C)c(=O)n2C", "inhibition": "inactive: 1.72%"}
{"smiles": "O=C(Cn1c(CO)nc2ccccc21)Nc1ccccc1Cl", "inhibition": "inactive: 5.86%"}
{"smiles": "CC(C)(C)C(=O)NC(Sc1ccccc1)C(Cl)(Cl)Cl", "note": "(configuration not stated)", "inhibition": "inactive: -26.4%"}
{"smiles": "Cc1ccc2c(c1)C1C[N+](C)(CC(=O)c3ccccc3)CCC1N2C(=O)c1ccccc1Cl", "note": "(configuration not stated)", "inhibition": "inactive: -2.76%"}
{"smiles": "CC(/C=C/c1ccccc1)=N/NC(=O)CCC(=O)Nc1ccccc1C", "inhibition": "inactive: 5.13%"}
{"smiles": "COc1cccc(C(=O)CSc2nc3ccccc3n2CC(=O)N2CCOCC2)c1", "inhibition": "inactive: 16.7%"}
{"smiles": "O=C(Cn1c(-c2cncs2)nc2ccccc21)NCCc1ccccc1", "inhibition": "inactive: 4.88%"}
{"smiles": "CSc1nc2ccccc2n1CC(=O)Nc1c(C)n(C)n(-c2ccccc2)c1=O", "inhibition": "inactive: -7.53%"}
{"smiles": "CCOC(=O)c1ccc(NC(=O)Cn2c(-c3nonc3N)nc3ccccc32)cc1", "inhibition": "inactive: -60.9%"}
{"smiles": "CCc1cc(O)c([N+](=O)[O-])c(C)c1[N+](=O)[O-]", "inhibition": "inactive: 15.7%"}
{"smiles": "COCCNC(=O)Cn1cnc2c1c(=O)n(C)c(=O)n2C", "inhibition": "inactive: 13.5%"}
{"smiles": "CCOc1ccc(C2=NCC(CBr)S2)cc1", "note": "(configuration not stated)", "inhibition": "inactive: 15.5%"}
{"smiles": "COCCN1CCn2c(nc3cc(NC(C)=O)ccc32)C1", "inhibition": "inactive: 5.94%"}
{"smiles": "Cc1nc2ccccc2n1CC(=O)N1CC(=O)Nc2ccccc21", "inhibition": "inactive: -28.7%"}
{"smiles": "COc1cccc(CNC(=O)[C@H](CCSC)NC(=O)N2CCn3c2nc2ccccc23)c1", "inhibition": "inactive: 14.4%"}
{"smiles": "COC(=O)c1ccc(CNC(=O)Cn2cnc3c(NCc4ccccc4)ncnc32)cc1", "inhibition": "inactive: 2.49%"}
{"smiles": "CC1CN(C(=O)Cn2cnc3c2c(=O)n(C)c(=O)n3C)CC(C)O1", "note": "(configuration not stated)", "inhibition": "inactive: 11.7%"}
{"smiles": "C[C@H](NC(=O)N1CCn2c1nc1ccccc12)C(=O)NCc1ccccc1", "inhibition": "inactive: 2.6%"}
{"smiles": "O=P1(Nc2nc3ccc(Cl)cc3s2)COc2ccccc2O1", "note": "(configuration not stated)", "inhibition": "inactive: 5.35%"}
{"smiles": "CCn1c(=O)c2c(nc3n2CCN3c2ccccc2)n(C)c1=O", "inhibition": "inactive: 7.12%"}
{"smiles": "O=C(Cn1cnc2c(OCc3ccccc3)ncnc21)NCc1ccccc1", "inhibition": "inactive: 23%"}
{"smiles": "N#Cc1cccc(NC(=O)Cn2c3[n+](c4ccc(C(F)(F)F)cc42)CCCCC3)c1", "inhibition": "inactive: 12.8%"}
{"smiles": "Cc1ccc2c(c1)C1CN(C)CCC1N2C(=O)COc1ccc(N(C)C(=O)c2ccccc2)cc1", "note": "(configuration not stated)", "inhibition": "inactive: 11.8%"}
{"smiles": "N=c1n(CCCOc2ccccc2Cl)c2ccccc2n1CC(N)=O", "inhibition": "inactive: 19.6%"}
{"smiles": "CC(C)(C)NC(=O)Cn1c(SCC(N)=O)nc2ccccc21", "inhibition": "inactive: 11.4%"}
{"smiles": "O=C(Cn1c(NCCO)nc2ccccc21)Nc1ccc2c(c1)OCCCO2", "inhibition": "inactive: 1.46%"}
{"smiles": "CC(C)CCNC(=O)CC1C(=O)N(Cc2ccccc2)C(C)c2nc3ccccc3n21", "note": "(configuration not stated)", "inhibition": "inactive: 12.6%"}
{"smiles": "CN1C(=O)CC(n2c(CO)nc3ccccc32)C1=O", "note": "(configuration not stated)", "inhibition": "inactive: 4.65%"}
{"smiles": "Cn1c(=O)c2c(ncn2CC(=O)Nc2cc(S(=O)(=O)N3CCCCC3)ccc2Cl)n(C)c1=O", "inhibition": "inactive: 5.83%"}
{"smiles": "Cc1nc2cc(C(F)(F)F)ccc2n1C1CCN(Cc2nnnn2CCc2ccccc2)CC1", "inhibition": "inactive: 13%"}
{"smiles": "CC(=O)Nc1ccc(Oc2c([N+](=O)[O-])cc([N+](=O)[O-])cc2[N+](=O)[O-])cc1", "inhibition": "inactive: 14.6%"}
{"smiles": "O=C(CCNC(=O)N1CCn2c1nc1ccccc12)NCc1ccc(Cl)cc1", "inhibition": "inactive: 8.48%"}
{"smiles": "Cc1cc(NC(=O)CSc2nc3ccccc3n2CC(=O)N2CCC(C)CC2)no1", "inhibition": "inactive: 4.15%"}
{"smiles": "CSCC[C@H](NC(=O)N1CCn2c1nc1ccccc12)C(=O)NC1CCCCC1", "inhibition": "inactive: 2.17%"}
{"smiles": "O=S(=O)(c1ccc(F)cc1)N1CCn2c(nc3ccccc32)C1", "inhibition": "inactive: 7.99%"}
{"smiles": "CC1=NNC(=O)C1CCC(=O)N/N=C/C=C/c1ccccc1", "note": "(configuration not stated)", "inhibition": "inactive: 16.5%"}
{"smiles": "CC(=O)Nc1ccc([As](=O)(O)O)c(O)c1", "inhibition": "inactive: 17.7%"}
{"smiles": "COc1ccc2c(c1)C1(Nc3ccccc3-c3nc4ccccc4n31)C(=O)N2", "note": "(configuration not stated)", "inhibition": "inactive: 7.78%"}
{"smiles": "CCOC(=O)c1ccc(NC(=O)C2CC(=O)Nc3nc4ccccc4n32)cc1", "note": "(configuration not stated)", "inhibition": "inactive: 7.95%"}
{"smiles": "CCC(C(=O)NC1CCCC1)n1c(SCc2cccc(C)c2)nc2ccncc21", "note": "(configuration not stated)", "inhibition": "inactive: -2.4%"}
{"smiles": "CC(C)[C@H](NC(=O)N1CCn2c1nc1ccccc12)C(=O)NCc1ccc(F)cc1", "inhibition": "inactive: 0.42%"}
{"smiles": "COCC(=O)N(C)[C@H]1C[C@H]2c3cc(Oc4ccccc4C)ccc3CCN2C(=O)[C@H]1[C@H](C)O", "inhibition": "inactive: 16.6%"}
{"smiles": "COc1ccc(CCNC(=O)[C@H](C)NC(=O)N2CCn3c2nc2ccccc23)cc1OC", "inhibition": "inactive: 6.63%"}
{"smiles": "COCCN1CCn2c(nc3cc(NC(=O)Cn4nc(C)c5ccccc5c4=O)ccc32)C1", "inhibition": "inactive: 6.7%"}
{"smiles": "O=C(Cn1cnc2ccccc21)Nc1ccc(C(=O)O)cc1", "inhibition": "inactive: 4.46%"}
{"smiles": "O=C(C1COc2ccccc2O1)N1CCn2c(nc3ccccc32)C1", "note": "(configuration not stated)", "inhibition": "inactive: 6.55%"}
{"smiles": "Fc1ccc2c(c1)nnn2C1CCN(Cc2nnnn2CCc2ccccc2)CC1", "inhibition": "inactive: 9.59%"}
{"smiles": "COc1ccccc1OCC(O)Cn1c(=N)n(CCN2CCCCC2)c2ccccc21", "note": "(configuration not stated)", "inhibition": "inactive: 8.68%"}
{"smiles": "CC(C)C[C@H](NC(=O)N1CCn2c1nc1ccccc12)C(=O)NCc1ccccc1", "inhibition": "inactive: 10.4%"}
{"smiles": "C[C@H]1OP(=O)(Oc2ccccc2)C[C@@H]2O[C@@H]21", "note": "(some centres not stated)", "inhibition": "inactive: 2.28%"}
